Reference: patent publication US10583094B2

Details: MCE model, 300 μM, 0.5 μl/hr subcutaneously

BODIPY-FL-glyburide [BODIPY-glibenclamide]
Fluorescent labeling in uninvolved hemisphere and pancreas: minimal labeling
Fluorescent labeling in unperfused core of the stroke: none
